According to ChEMBL document CHEMBL1132227, “Low-molecular-weight peptidic and cyclic antagonists of the receptor for the complement factor C5a” (J Med Chem, 1999):

Assays:
[1] = target: T1, C5a anaphylatoxin chemotactic receptor 1 (Homo sapiens, UniProt P21730); test: (§1) Inhibition of binding of [125I]C5a to human polymorphonuclear leukocyte C5a receptor
T1 sequence (P21730 whole entry): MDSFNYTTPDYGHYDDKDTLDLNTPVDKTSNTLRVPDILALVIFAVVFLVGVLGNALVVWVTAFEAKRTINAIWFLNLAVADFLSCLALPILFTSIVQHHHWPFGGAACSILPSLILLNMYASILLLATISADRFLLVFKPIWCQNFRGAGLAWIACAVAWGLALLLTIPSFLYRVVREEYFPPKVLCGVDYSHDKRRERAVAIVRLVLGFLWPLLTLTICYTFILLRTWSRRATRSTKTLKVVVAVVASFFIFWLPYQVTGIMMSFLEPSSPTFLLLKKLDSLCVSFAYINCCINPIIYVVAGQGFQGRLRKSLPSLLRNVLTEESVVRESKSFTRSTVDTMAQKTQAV
How it was run: (§2)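 Competition binding on fresh human PMNs (0.2 × 10⁶) with [¹²⁵I]C5a (~50 pM). Buffer: 50 mM HEPES, 1 mM CaCl₂, 5 mM MgCl₂, 0.5% BSA, 0.1% bacitracin, 100 μM PMSF. Incubated 60 min at 4 °C, then filtered, washed and γ-counted. Nonspecific binding defined with 1 mM peptide or 100 nM C5a.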

[2] = target: T1, C5a anaphylatoxin chemotactic receptor 1; test: as §1; how it was run: as §2; remark: listed apart in the source

CN[C@@H](Cc1ccccc1)C(=O)N[C@@H](CCCCN)C(=O)N1CCCC1C(=O)N[C@H](CC1CCCCC1)C(=O)N[C@@H](Cc1c[nH]c2ccccc12)C(=O)N[C@H](CCCN=C(N)N)C(=O)O (single isomer, unassigned)
IC50 [1]: 2 µM
IC50 [2]: 2 µM
